This experiment can be described thus: Binding affinity to CFTR F508 deletion mutant expressed in forskolin-stimulated FRT cells assessed as increase in iodine influx measured as YFP quenching rate after 24 hrs by fluorescence assay. The format is cell-based. The essentials:
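ΔF508-CFTR and halide-sensitive YFP coexpressed in FRT cells, held at 27 °C for 24 h for rescue, then stimulated 30–40 min with 20 μM forskolin with or without compound at 0.2, 2 and 20 μM. Fluorescence read before and after I– addition (100 mM final). Normalized decay fitted exponentially for maximal quenching rate; dose–response fitted with Hill equation for potency and maximal effect. Three independent determinations.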

For orientation: Kd means a measure of binding affinity in units of concentration.

On to `O=c1c(-c2ccc(O)cc2)coc2cc(O)cc(O)c12` [GENISTEIN], for which the Kd was 9.4 µM.

Source of the values: ChEMBL document CHEMBL1811821, “Cystic fibrosis: a new target for 4-Imidazo[2,1-b]thiazole-1,4-dihydropyridines” (J Med Chem, 2011).
